Amino acid sequences for entries named in this document (tags omitted). A change or cut given only in a name is not applied to a line headed by its entry.
UniProt P42336, whole entry: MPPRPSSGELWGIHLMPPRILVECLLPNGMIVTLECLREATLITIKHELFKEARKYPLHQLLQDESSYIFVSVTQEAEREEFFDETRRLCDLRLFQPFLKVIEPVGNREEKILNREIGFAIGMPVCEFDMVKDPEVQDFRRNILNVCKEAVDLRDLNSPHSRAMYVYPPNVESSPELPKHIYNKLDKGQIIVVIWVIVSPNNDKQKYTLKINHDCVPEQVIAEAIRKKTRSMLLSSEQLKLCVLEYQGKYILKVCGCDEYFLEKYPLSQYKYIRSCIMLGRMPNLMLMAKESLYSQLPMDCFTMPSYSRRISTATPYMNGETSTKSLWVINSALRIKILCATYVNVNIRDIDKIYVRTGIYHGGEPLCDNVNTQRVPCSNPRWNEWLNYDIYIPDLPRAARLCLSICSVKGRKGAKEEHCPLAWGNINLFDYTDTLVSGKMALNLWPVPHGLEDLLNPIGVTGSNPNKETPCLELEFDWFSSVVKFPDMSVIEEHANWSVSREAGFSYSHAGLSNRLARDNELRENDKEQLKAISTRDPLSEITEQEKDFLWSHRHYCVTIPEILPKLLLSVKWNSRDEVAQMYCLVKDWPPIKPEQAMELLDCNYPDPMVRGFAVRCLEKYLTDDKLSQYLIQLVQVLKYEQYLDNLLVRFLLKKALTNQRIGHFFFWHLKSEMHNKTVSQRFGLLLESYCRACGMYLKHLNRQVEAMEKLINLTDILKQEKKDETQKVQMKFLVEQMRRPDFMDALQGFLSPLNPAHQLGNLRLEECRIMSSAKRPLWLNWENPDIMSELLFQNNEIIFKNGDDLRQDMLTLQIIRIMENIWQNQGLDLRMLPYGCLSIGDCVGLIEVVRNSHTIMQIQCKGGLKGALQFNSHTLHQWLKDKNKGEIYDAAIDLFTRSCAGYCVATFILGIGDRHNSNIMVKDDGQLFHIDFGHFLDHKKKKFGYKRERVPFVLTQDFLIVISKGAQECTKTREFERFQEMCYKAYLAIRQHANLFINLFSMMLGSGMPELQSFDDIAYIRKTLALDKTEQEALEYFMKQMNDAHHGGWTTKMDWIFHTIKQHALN
UniProt O00329: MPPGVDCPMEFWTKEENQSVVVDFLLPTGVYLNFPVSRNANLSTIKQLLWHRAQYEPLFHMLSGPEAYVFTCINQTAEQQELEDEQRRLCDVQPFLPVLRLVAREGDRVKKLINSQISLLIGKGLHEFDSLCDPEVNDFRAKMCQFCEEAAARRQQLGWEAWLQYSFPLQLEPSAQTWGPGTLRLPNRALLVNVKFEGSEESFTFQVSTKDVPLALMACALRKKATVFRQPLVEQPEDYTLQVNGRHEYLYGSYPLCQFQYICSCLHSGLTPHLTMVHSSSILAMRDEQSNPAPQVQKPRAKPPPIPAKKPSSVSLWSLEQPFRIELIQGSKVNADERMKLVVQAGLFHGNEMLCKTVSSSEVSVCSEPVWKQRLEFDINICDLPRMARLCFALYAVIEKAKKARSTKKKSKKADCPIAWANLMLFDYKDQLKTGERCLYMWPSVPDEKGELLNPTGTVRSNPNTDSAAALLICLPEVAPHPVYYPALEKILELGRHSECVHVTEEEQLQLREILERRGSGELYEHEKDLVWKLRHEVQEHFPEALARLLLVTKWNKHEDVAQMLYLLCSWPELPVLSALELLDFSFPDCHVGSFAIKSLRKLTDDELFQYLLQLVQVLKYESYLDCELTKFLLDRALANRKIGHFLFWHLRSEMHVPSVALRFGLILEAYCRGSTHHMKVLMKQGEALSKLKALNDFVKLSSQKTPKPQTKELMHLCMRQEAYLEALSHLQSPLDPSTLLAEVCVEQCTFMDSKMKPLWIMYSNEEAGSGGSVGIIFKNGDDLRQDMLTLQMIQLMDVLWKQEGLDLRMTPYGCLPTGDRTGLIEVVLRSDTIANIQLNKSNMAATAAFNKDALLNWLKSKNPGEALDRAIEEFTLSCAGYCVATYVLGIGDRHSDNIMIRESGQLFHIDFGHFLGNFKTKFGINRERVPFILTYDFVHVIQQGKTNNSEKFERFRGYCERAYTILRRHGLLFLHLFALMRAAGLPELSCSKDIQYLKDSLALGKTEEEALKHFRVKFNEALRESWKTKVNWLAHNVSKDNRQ

According to patent publication US20250281491A1 (published 2025):

How the values were obtained:
PI3Kα = PI3Kα (Homo sapiens, UniProt P42336); experiment: PI3K inhibition assay (BPS Bioscience kit, ADP-Glo luminescence)
PI3Kδ = PI3Kδ (Homo sapiens, UniProt O00329); experiment: as above

- IC50 (PI3Kα): 187 nM
- IC50 (PI3Kδ): 338 nM
Compound: C[C@H](NC(=O)c1c(N)nn2cccnc12)c1cc2cccc(C#Cc3cnn(C)c3)c2c(=O)n1-c1ccccc1 [IPI-549, reference compound]
